Laboratory results: patent US9968573B2, “Endoprosthesis having and active substance coating” (HEMOTEQ AG, priority 2011, dated 2018)

Assays:
[1] = calculated, assuming immediate and complete release
[2] = In vitro elution of antibiotic from coated titanium samples (ninhydrin colour reaction); format: physicochemical; details: within 11 days, static aqueous system, 37°
Procedure: FIG. 6 In vitro experiments show, that there is no controlled in vitro release of gentamicin palmitate (within 11 days) but rather high initial concentration without apparent release delay, wherein, compared to gentamicin pantothenate and gentamicin pantothenate/PVP with 100% release, only 58% of gentamicin are released.
Therefore the samples are given in 2 mL demineralized water and maintained at 37° over a set period of time in a static aqueous system. At fixed times each 50 μL sample volume are taken. The determination of the antibiotic amount in the sample was done by means of ninhydrin color reaction. This method of determination of amount works for all antibiotics, which have amino groups, such as illustrated representatively with the example of the structure of the amino glycoside gentamicin: […]

L929 cells = details: Ti-Cylinder, rough surface
Procedure: This allows a conclusion on the proliferation of the cells during incubation.

With Gentamicin-Penta-Pantothenate the “maximum dose classified as safe (upper limit)” value [1] was 873 μg/cm^2, the “release of gentamicin from coating” value [2] was 100% and the “Cytotoxic according to ISO 10993-5” value (L929 cells; 700 μg/cm^2) was “No”. The “Cytotoxic according to ISO 10993-5” value (L929 cells; 800 μg/cm^2) was “No” and the “Cytotoxic according to ISO 10993-5” value (L929 cells; 900 μg/cm^2) was “No”.

Like-named read-outs stand apart in the source and are kept apart here.
